# Experimental data: patent publication US10351558B2, “Factor IXa inhibitors” (Merck Sharp & Dohme Corp., priority 2015, dated 2019)
# Chains of the proteins cited; added tags and fusions are not shown. Residues count along the entry.
# UniProt P00740, 227-461: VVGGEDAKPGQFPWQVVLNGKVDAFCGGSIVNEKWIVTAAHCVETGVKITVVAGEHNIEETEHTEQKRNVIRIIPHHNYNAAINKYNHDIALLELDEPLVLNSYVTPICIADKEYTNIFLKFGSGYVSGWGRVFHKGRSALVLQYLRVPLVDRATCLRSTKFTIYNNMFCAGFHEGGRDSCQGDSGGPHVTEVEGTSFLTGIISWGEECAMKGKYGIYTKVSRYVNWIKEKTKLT
# UniProt P00740, 47-191 partner: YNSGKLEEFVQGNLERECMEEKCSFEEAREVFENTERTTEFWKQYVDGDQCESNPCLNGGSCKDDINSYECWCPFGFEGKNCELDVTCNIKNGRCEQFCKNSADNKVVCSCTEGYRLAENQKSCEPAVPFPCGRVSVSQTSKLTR
# Target: hFIXa (Homo sapiens (Human), UniProt P00740)
# Assay: Determination of inhibitory activity against Factor IXa (cleavage of fluorescent peptide CH3SO2-D-CHG-Gly-Arg-AFC)
# Format: biochemical
row,SMILES,IC50 [nM]
1,"Cc1ccc2c(c1)nc1n2CC(NC(=O)c2ccc(-n3cnc(C)n3)cc2Cl)(c2ccc(F)cc2)CC1(F)F (single isomer, unassigned) [Example 104, 2-chloro-N-(4,4-difluoro-2-(4-fluorophenyl)-7-methyl-1,2,3,4-tetrahydrobenzo[4,5]imidazo[1,2-a]pyridin-2-yl)-4-(3-methyl-1H-1,2,4-triazol-1-yl)benzamide]",39.3
2,"CC(=O)c1c2n(c3ccc(C)cc13)C[C@@](NC(=O)c1ccc(-n3cnnc3)cc1Cl)(c1ccccc1)CC2 (stereo in doubt) [Example 135, N-(10-acetyl-2-methyl-7-phenyl-6,7,8,9-tetrahydropyrido[1,2-a]indol-7-yl)-2-chloro-4-(4H-1,2,4-triazol-4-yl)benzamide]",2.01
3,Cc1ccc(O)c2c3c(nn12)CCC(C)(NC(=O)c1ccc(-n2cnnc2)cc1)C3 (stereo not shown) [Example 1],507
4,"Cc1ccc2c3c(nn2c1)CCC(C)(NC(=O)c1ccc(-n2cnnc2)cc1Cl)C3 (stereo not shown) [Example 2, 2-Chloro-N-(2,8-dimethyl-1,2,3,4-tetrahydropyrido[1,2-b]indazol-2-yl)-4-(4H-1,2,4-triazol-4-yl)benzamide]",63.3
5,Cc1ccc2c3c(nn2c1)CCC(C)(NC(=O)c1ccc(-n2cnc4ncccc42)cc1Cl)C3 (stereo not shown) [Example 4],13.7
6,"Cc1cc(O)c2c3c(nn2c1)CCC(NC(=O)c1ccc(-n2cnnc2)cc1Cl)(c1ccccc1)C3 (stereo not shown) [Example 8, 2-Chloro-N-(10-hydroxy-8-methyl-2-phenyl-1,2,3,4-tetrahydropyrido[1,2-b]indazol-2-yl)-4-(4H-1,2,4-triazol-4-yl)benzamide]",9.79
7,Cc1ccc2c3c(nn2c1)CCC(C)(NC(=O)c1c(Cl)cc(-n2cc(CCO)nn2)cc1Cl)C3 (stereo not shown) [Example 11],16.3
8,Cc1ccc2c3c(nn2c1)CCC(CO)(NC(=O)c1c(Cl)cc(-n2cnn(C)c2=O)cc1Cl)C3 (stereo not shown) [Example 12],7.1
9,Cc1cc(O)c2c3c(nn2c1)CCC(NC(=O)c1ccc(-n2cnc(C)n2)cc1Cl)(c1ccccc1)C3 (stereo not shown) [Example 14],12.1
10,Cc1cc(O)c2c3c(nn2c1)CCC(NC(=O)c1c(C)cc(-n2cnnc2)cc1Cl)(c1ccccc1)C3 (stereo not shown) [Example 15],4.81
11,Cc1ccc2c3c(nn2c1)CCC(NC(=O)c1ccc(-n2cnc(C)n2)cc1Cl)(c1ccc(F)cc1)C3 (stereo not shown) [Example 17],8.07
12,Cc1cc2c3c(nn2cc1C)CCC(C)(NC(=O)c1ccc(-n2cnc4ccc(Cl)cc42)cc1Cl)C3 (stereo not shown) [Example 18],16.3
13,CNC(=O)c1ccc2ncn(-c3ccc(C(=O)NC4(C)CCc5nn6cc(C)ccc6c5C4)c(Cl)c3)c2c1 (stereo not shown) [Example 19],9.13
14,CNC(=O)c1ccc2c(c1)ncn2-c1ccc(C(=O)NC2(C)CCc3nn4cc(C)ccc4c3C2)c(Cl)c1 (stereo not shown) [Example 20],10.5
15,Cc1ccc(O)c2c3c(nn12)CC[C@@](C)(NC(=O)c1ccc(-n2cnc4ccc(C(N)=O)cc42)cc1Cl)C3 [Example 22],2.38
16,Cc1ccc(O)c2c3c(nn12)CC[C@@](C)(NC(=O)c1ccc(-n2cnc4cc(C(N)=O)ccc42)cc1Cl)C3 [Example 23],2.44
17,Cc1ccc(O)c2c3c(nn12)CC[C@@](C)(NC(=O)c1ccc(-n2cnc4cc(C(=O)O)ccc42)cc1Cl)C3 [Example 24],2.78
18,Cc1ccc(O)c2c3c(nn12)CC[C@@](C)(NC(=O)c1ccc(-n2cnc4ccc(C(=O)O)cc42)cc1Cl)C3 [Example 25],4.88
19,"COc1cc2ncn(-c3ccc(C(=O)NC4(C)CCc5nn6cc(C)ccc6c5C4)c(Cl)c3)c2cc1OC (stereo not shown) [Example 26, 2-Chloro-4-(5,6-dimethoxy-1H-benzo[d]imidazol-1-yl)-N-(2,8-dimethyl-1,2,3,4-tetrahydropyrido[1,2-b]indazol-2-yl)benzamide]",3.56
20,Cc1ccc2c3c(nn2c1)CCC(NC(=O)c1ccc(-n2cnc(C)n2)cc1Cl)(c1cn(C(C)C)nn1)C3 (stereo not shown) [Example 27],17.9
21,Cc1ccc2c3c(nn2c1)CCC(NC(=O)c1ccc(-n2cnc(C)n2)cc1Cl)(c1cccc(Cl)c1)C3 (stereo not shown) [Example 28],2.63
22,Cc1ccc2c3c(nn2c1)CCC(NC(=O)c1ccc(-n2cnc(C)n2)cc1Cl)(c1ccc(F)c(F)c1)C3 (stereo not shown) [Example 29],16

row,SMILES,IC50 [nM]
1,Cc1cc(O)c2c3c(nn2c1)CCC(NC(=O)c1c(Cl)cc(-n2cnnc2)cc1Cl)(c1ccccc1)C3 (stereo not shown) [Example 30],3.65
2,Cc1ccc2c3c(nn2c1)CCC(NC(=O)c1c(Cl)cc(-n2cnnc2)cc1Cl)(c1cccc(F)c1)C3 (stereo not shown) [Example 31],6.95
3,Cc1ncn(-c2cc(Cl)c(C(=O)NC3(c4ccccc4)CCc4nn5cc(F)ccc5c4C3)c(Cl)c2)n1 (stereo not shown) [Example 32],17.7
4,CNC(=O)c1ccc2ncn(-c3ccc(C(=O)N[C@]4(C)CCc5nn6c(C)ccc(O)c6c5C4)c(Cl)c3)c2c1 [Example 33],6.92
5,CNC(=O)c1ccc2c(c1)ncn2-c1ccc(C(=O)N[C@]2(C)CCc3nn4c(C)ccc(O)c4c3C2)c(Cl)c1 [Example 34],5.34
6,COC(=O)c1ccc2c(c1)ncn2-c1ccc(C(=O)N[C@]2(C)CCc3nn4c(C)ccc(O)c4c3C2)c(Cl)c1 [Example 35],5.96
7,COC(=O)c1ccc2ncn(-c3ccc(C(=O)N[C@]4(C)CCc5nn6c(C)ccc(O)c6c5C4)c(Cl)c3)c2c1 [Example 36],11.1
8,Cc1cc(O)c2c3c(nn2c1)CCC(NC(=O)c1c(Cl)cc(-n2cnc(C)n2)cc1Cl)(c1ccccc1)C3 (stereo not shown) [Example 38],10.9
9,CCn1cc(C2(NC(=O)c3c(Cl)cc(-n4cnc(C)n4)cc3Cl)CCc3nn4cc(C)ccc4c3C2)nn1 (stereo not shown) [Example 41],7.84
10,COc1cccc(C2(NC(=O)c3c(Cl)cc(-n4cnc(C)n4)cc3Cl)CCc3nn4cc(C)ccc4c3C2)c1 (stereo not shown) [Example 42],2.92
11,Cc1ccc2c3c(nn2c1)CCC(NC(=O)c1c(Cl)cc(-n2cnc(C)n2)cc1Cl)(c1cn(C2CC2)nn1)C3 (stereo not shown) [Example 43],10.3
12,CCCn1cc(C2(NC(=O)c3c(Cl)cc(-n4cnc(C)n4)cc3Cl)CCc3nn4cc(C)ccc4c3C2)nn1 (stereo not shown) [Example 45],7.8
13,Cc1ccc2c3c(nn2c1)CCC(NC(=O)c1ccc(-n2cnc(C)n2)cc1Cl)(c1cccc(C(F)(F)F)c1)C3 (stereo not shown) [Example 46],4.84
14,Cc1ncn(-c2cc(Cl)c(C(=O)NC3(c4cccc(Cl)c4)CCc4nn5cc(F)ccc5c4C3)c(Cl)c2)n1 (stereo not shown) [Example 49],17.3
15,Cc1ccc2c3c(nn2c1)CCC(NC(=O)c1c(Cl)cc(-n2cnc(C)n2)cc1Cl)(c1cn(C2(C)CC2)nn1)C3 (stereo not shown) [Example 50],11.3
16,Cc1cc(O)c2c3c(nn2c1)CCC(NC(=O)c1c(Cl)cc(-n2cc(CCO)nn2)cc1Cl)(c1ccccc1)C3 (stereo not shown) [Example 51],5.31
17,Cc1ccc(O)c2c3c(nn12)CC[C@@](C)(NC(=O)c1ccc(-n2cnc4cc(C(=O)N5CC(O)C5)ccc42)cc1Cl)C3 [Example 52],16.1
18,Cc1ccc(O)c2c3c(nn12)CC[C@@](C)(NC(=O)c1ccc(-n2cnc4ccc(C(=O)N5CC(O)C5)cc42)cc1Cl)C3 [Example 53],4.03
19,Cc1ccc2c(c1)nc1n2C[C@](C)(NC(=O)c2ccc(-n3cnnc3)cc2Cl)CC1 [Example 55],36.6
20,Cc1ccc2c(c1)nc1n2C[C@](C)(NC(=O)c2ccc(-n3cnc4cnccc43)cc2Cl)CC1 [Example 56],13.8
21,Cc1ccc2c(c1)nc1n2C[C@@](NC(=O)c2ccc(-n3cnnc3)cc2Cl)(c2ccccc2)CC1 [Example 57],1.42
